The series in a line: Cell viability of healthy PBMC. Here is the method:
All cell lines were plated in black, tissue culture treated, 96 well plates at a cell density of 1×10^5 celis/mL (1×10^4 cells/well). Cells were allowed 24 h to attach to the plate prior to being dosed with drug. […] Cells were allowed to incubate for 48 or 72 h. Following incubation cells were stained with Alamar Blue such that the final concentration of Alamar Blue in the test well was 10%. Cells were stained for 2 h and then fluorescence was measured on a Molecular Devices Analyst GT multimode plate reader using an excitation filter of 530/25 nm and an emission filter of 580/10 nm and a 561 nm dichroic mirror. Cell viability was expressed as a percentage of untreated control cells. Data are expressed as mean±standard error and are the average of four independent cell preparations.
Healthy PBMC (Peripheral Blood Mononuclear Cells) were treated similarly to the above tumour cell line tests.

Each structure is given as a SMILES string.

`O=C1N[C@@H]2C(=C[C@H](O)[C@@H](O)[C@H]2O)c2cc3c(c(O)c21)OCO3` [narciclasine, reference compound] yielded a viability of roughly 90% and a viability at 2.265 µM greater than 60%.

The term viability denotes a read-out of living cells in per cent, often relative to untreated cells. Higher therefore signals less harm to the cells.

Source of the values: patent US20140234345A1, “NOVEL ANTI-CANCER ISOCARBOSTYRIL ALKALOID CONJUGATES” (priority 2011, published 2014).
